From ChEMBL document CHEMBL3232718, “Design, synthesis, and characterization of novel, nonquaternary reactivators of GF-inhibited human acetylcholinesterase” (2014)

Protein sequences, listed by entry. Tags and fused reporters are not part of them. Lines headed by an entry give the natural chain unless they say otherwise; changes in a name come on top.
UniProt P22303: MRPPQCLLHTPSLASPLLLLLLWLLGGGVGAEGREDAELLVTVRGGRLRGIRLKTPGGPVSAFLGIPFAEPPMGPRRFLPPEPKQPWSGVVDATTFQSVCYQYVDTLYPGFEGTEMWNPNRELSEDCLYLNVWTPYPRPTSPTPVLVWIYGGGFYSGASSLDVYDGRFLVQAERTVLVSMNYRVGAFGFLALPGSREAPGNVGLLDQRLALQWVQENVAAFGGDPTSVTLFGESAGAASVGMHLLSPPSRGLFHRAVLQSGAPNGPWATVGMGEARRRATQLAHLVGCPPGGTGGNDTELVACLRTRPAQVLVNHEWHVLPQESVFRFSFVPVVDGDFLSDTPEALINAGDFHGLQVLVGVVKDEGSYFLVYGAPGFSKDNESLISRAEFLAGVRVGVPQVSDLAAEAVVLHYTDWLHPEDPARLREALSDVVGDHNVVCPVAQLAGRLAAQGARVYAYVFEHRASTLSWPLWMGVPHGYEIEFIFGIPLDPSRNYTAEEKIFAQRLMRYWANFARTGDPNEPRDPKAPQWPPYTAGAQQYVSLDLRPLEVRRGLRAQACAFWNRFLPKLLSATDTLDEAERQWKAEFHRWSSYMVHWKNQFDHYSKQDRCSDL

What was measured:
[1] = target: Acetylcholinesterase (Homo sapiens) (UniProt P22303); experiment: Reactivation of cyclosarin-inhibited human AChE using acetylthiocholine as substrate at 20 uM after 4 hrs by robotic spectrophotometric assay; set-up: scale not given: the % may be the effect or the level left
[2] = target: Acetylcholinesterase (Homo sapiens) (UniProt P22303); experiment: Inhibition of human AChE using acetylthiocholine as substrate assessed as residual activity at 20 uM after 4 hrs by robotic spectrophotometric assay relative to control

Row | SMILES | Activity [1] [%] | Activity [2] [%]
1 | O=C(/C=N/O)NCC1CCN(Cc2ccccc2)CC1 | 7.7 | 99.4
2 | COc1ccc(CN2CCCC(COc3ccc(C(=O)/C=N/O)cn3)C2)cc1OC (centres undefined) | 40 | 95.3
3 | O=C(/C=N/O)c1ccc(OCC2CCN(Cc3ccccc3)C2)nc1 (centres undefined) | 29.3 | 85.7
4 | COc1ccc(CN2CCC(COc3ccc(C(=O)/C=N/O)cn3)C2)cc1OC (centres undefined) | 24.9 | 98.9
5 | N#C/C(=N\O)C(=O)NC1CCN(Cc2ccccc2)CC1 | 0.06 | 97.3
6 | O=C(/C=N/O)c1ccnc(OCC2CCN(Cc3ccccc3)CC2)c1 | 19.4 | 89
7 | O=C(/C=N/O)c1ccc(OCC2CCN(Cc3ccccc3)CC2)nc1 | 37.8 | 60.9
8 | O=C(/C=N/O)c1ccc(OCC2CCN(Cc3cccc(Cl)c3)CC2)nc1 | 20.2 | 93.7
9 | O=C(/C=N/O)c1ccc(OCC2CCCCN2Cc2ccccc2)nc1 (centres undefined) | 35.2 | 96.5
10 | N#C/C(=N\O)C(=O)NCC1CCN(Cc2ccccc2)CC1 | 4.8 | 99.9
11 | COc1ccc(CN2CCC(CNC(=O)/C(=N/O)C(C)=O)CC2)cc1OC | 24.5 | 92.8
12 | O=C(/C=N/O)c1cnc(OCC2CCN(Cc3ccccc3)CC2)nc1 | 32.4 | 73.4
13 | N#C/C(=N\O)C(=O)NCCCNc1c2c(nc3ccccc13)CCCC2 | 100 | 6.97
14 | O=C(/C=N/O)c1cccc(OCC2CCN(Cc3ccccc3)CC2)n1 | 8.52 | 85.8
15 | O=C(/C=N/O)c1ccc(NCC2CCN(Cc3ccccc3)CC2)nc1 | 23.5 | 97.3
16 | COc1ccc(CN2CCC(COc3ccc(C(=O)/C=N/O)cn3)CC2)cc1OC | 26.6 | 95.3

Row | SMILES | Activity [1] [%] | Activity [2] [%]
17 | O=C(/C=N/O)c1ccc(OCC2CCN(Cc3ccc(F)c(F)c3)CC2)nc1 | 34.7 | 88.8
18 | CC(=O)/C(=N\O)C(=O)NCC1CCN(Cc2ccccc2)CC1 | 23.9 | –
19 | O=C(/C=N/O)NCCCCNc1c2c(nc3ccccc13)CCCC2 | 34.7 | 7
20 | CC(=O)/C(=N\O)C(=O)NC1CCN(Cc2ccccc2)CC1 | 12.8 | 92.1
21 | COc1cc2c(cc1OC)C(c1ccccc1)N(CCCNC(=O)/C=N/O)CC2 (centres undefined) | 2.9 | 92.5
22 | O=C(/C=N/O)NC1CCN(Cc2ccccc2)CC1 | 7.6 | –
23 | O/N=C/c1cnc(OCC2CCN(Cc3ccccc3)CC2)nc1 | 2.2 | 90.8
24 | N#Cc1ccc(CN2CCC(COc3ccc(C(=O)/C=N/O)cn3)CC2)cc1 | 21.6 | 98.8
25 | CC(=O)/C=N/O | 6.1 | –
26 | COc1cc2c(cc1OC)C(c1ccccc1)N(CCCNC(=O)/C(=N/O)C(C)=O)CC2 (centres undefined) | 36.8 | 99.2
27 | O=C(/C=N/O)c1cccnc1OCC1CCN(Cc2ccccc2)CC1 | 50.1 | 90.4
28 | COc1cc2c(cc1OC)CN(CCCNC(=O)/C(=N/O)C(C)=O)CC2 | 29.8 | 97.3
29 | O=C(/C=N/O)NCCCNc1c2c(nc3ccccc13)CCCC2 | 30.4 | 23.7
30 | COc1ccc(CN2CCCCC2COc2ccc(C(=O)/C=N/O)cn2)cc1OC (centres undefined) | 71.3 | 91.1
31 | O/N=C/c1ccc(OCC2CCN(Cc3ccccc3)CC2)nc1 | 0.42 | 100
